The results in this text go back to PubChem BioAssay AID602440 (Sanford-Burnham Center for Chemical Genomics, 2012).

Sequences of proteins named here, by UniProt entry; tags and fusion partners are left off. A change or cut given only in a name is not applied to a line headed by its entry.
UniProt Q96LD8: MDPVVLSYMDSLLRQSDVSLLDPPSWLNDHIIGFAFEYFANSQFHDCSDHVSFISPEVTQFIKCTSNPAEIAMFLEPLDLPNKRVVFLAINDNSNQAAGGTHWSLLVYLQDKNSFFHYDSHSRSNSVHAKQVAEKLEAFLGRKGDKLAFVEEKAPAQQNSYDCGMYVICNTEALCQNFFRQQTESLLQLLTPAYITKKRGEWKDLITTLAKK

This is a selection; strong and weak results do not stand in their true shares. The source made the active and inactive calls. Rule as the data show it: active = inhibition mostly above about 40% (no sharp cut-off); inactive = mostly below about 27%.

This experiment concerns the target Sentrin-specific protease 8 (Homo sapiens) (UniProt Q96LD8). The experiment in a line: blockers of SENP8 deneddylase activity – biochemical, fluorescence, Nedd8 protein substrate, uHTS, primary screen (AID 602440). Conditions: recombinant SENP8, Nedd8 substrate fluorescence; at 20 µM; hits give high values.
As to `Cc1ccc(NP(=O)(Oc2ccccc2)Oc2ccccc2)nc1`, the inhibition (in general, the change of the read-out against control, counted positive when it falls) was inactive: -197%. With `O=[N+]([O-])c1cccc2n[nH]nc12`, the inhibition was inactive: 22.8%. In the case of `CC(=O)N1C2C3N(C(C)=O)C1C1N(C(C)=O)C(C(N1C(C)=O)N3C(C)=O)N2C(C)=O`, the inhibition was inactive: 20.5%. Consider `O=[N+]([O-])c1ncn(CCn2ncnc2[N+](=O)[O-])n1`, for which the inhibition is inactive: 30%. Regarding `CC(C)(C)C(=O)NC(Sc1ccncn1)C(Cl)(Cl)Cl` (stereo not given), the inhibition was inactive: 12%. Turning to `O=C(O)CNc1ccc([As](=O)(O)O)cc1`, the inhibition was inactive: 13.7%.

Regarding `O=[N+]([O-])c1cccc(NC2=NCC(CBr)S2)c1` (stereo not given), the inhibition was inactive: -39%. As for `COC(=O)C1(C)COP(=O)(Nc2ccccc2)OC1` (stereo not given), the inhibition was inactive: 18%.

For `O=P1(N(CCCl)CCCl)OCCCS1` (stereo not given), the inhibition was inactive: 14.6%. Turning to `O=C(Nc1cc([As](=O)(O)O)ccc1O)c1ccccc1`, the inhibition was inactive: 28.8%. Turning to `Nc1cccc2ccc([As](=O)(O)O)cc12`, the inhibition was inactive: -304%.

In the case of `CCN(N=Nc1nonc1N)c1nonc1N`, the inhibition is inactive: 6.2%.

With `CN(C)P(=O)(N(C)C)n1c(Nc2ccccc2)nnc1-c1ccccc1`, the inhibition was inactive: 4.2%. Take `O=P(Nc1nc2ccc(Cl)cc2s1)(c1ccccc1)c1ccccc1`: the inhibition was inactive: 3.7%. For the compound `CCCC1OP(N)(=O)OCC1CC` (stereo not given), the inhibition was inactive: 13.4%. For `O=C(O)c1ccccc1[As](=O)(O)O`, the inhibition is inactive: 20.1%. For the compound `CC(=O)Nc1ccc([As](=O)(O)O)cc1`, the inhibition was inactive: 2.8%. The value for `Cc1ccc(NP(=O)(Oc2ccccc2F)Oc2ccccc2F)nc1` was inactive: -106%. The figure for `CN(C(=O)Cc1ccc(Cl)c(Cl)c1)[C@H]1CCCC[C@@H]1N1CCCC1` is inactive: 4.5%; for `CCOP(=O)(Nc1ccccc1)OCC` it is inactive: 13.8%. Take `Cc1cc(SC(NC(=O)c2ccc(F)cc2)C(Cl)(Cl)Cl)ncn1` (stereo not given): the inhibition is inactive: 21%.

As for `O=C(NC(Sc1ccncn1)C(Cl)(Cl)Cl)c1ccccc1` (stereo not given), the inhibition is inactive: 7.1%. Regarding `Oc1ccccc1CNc1ccccn1`, the inhibition is inactive: -0.7%. As to `CC(C)CC(=O)NC(Sc1ccc(Cl)cc1)C(Cl)(Cl)Cl` (stereo not given), the inhibition was inactive: 18.5%. Regarding `Nc1cc(N)c2nonc2c1[N+](=O)[O-]`, the inhibition is inactive: 26.1%. `O=[N+]([O-])C1C(O)C(O)C([N+](=O)[O-])C(O)C1O` (stereo not given): the inhibition was inactive: 11.8%. Regarding `Cc1ccc(N/C(=N/P(=O)(N2CCOCC2)N2CCOCC2)N2CCOCC2)cc1`, the inhibition was inactive: 2.1%. Regarding `CN(C(=O)Cc1ccc(Cl)c(Cl)c1)[C@H]1CCCC[C@H]1N1CCCC1`, the inhibition is inactive: 7.7%.

Consider `NC(=O)c1cc([N+](=O)[O-])cc([N+](=O)[O-])c1N`, for which the inhibition is inactive: 2.1%. As to `Clc1ccc(Cl)c(NC2=NCC(CBr)S2)c1` (stereo not given), the inhibition is inactive: 5.5%.
